Biological target: recombinant human secreted phospholipase A2 (Homo sapiens, UniProt P14555)
Assay: Chromogenic assay for inhibitors of recombinant human secreted phospholipase A2 (Assay Example 1)
Details: read-out: IC50 (nM) (nanomolar); diheptanoyl thio-PC substrate, pH 7.5, absorbance at 405 nm, triplicate

Protein sequences, listed by entry. Tags and fused reporters are not part of them. Residues count along the entry.
UniProt P14555, 21-144 limits assumed: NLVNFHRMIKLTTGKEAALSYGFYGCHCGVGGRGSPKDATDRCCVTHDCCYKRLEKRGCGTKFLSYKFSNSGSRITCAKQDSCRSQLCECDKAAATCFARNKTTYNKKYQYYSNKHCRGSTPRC

NC(=O)c1cccc2c1c1c(OCC(=O)NOc3ccccc3)cccc1n2Cc1ccccc1
IC50: 12 nM

Source: patent publication US6933313B2, “Substituted carbazoles as inhibitors of sPLA2” (Eli Lilly and Company, priority 2001, dated 2005)
